Assay: in vivo
Settings: mouse, po, 24 hours observation

**Q.** Which LD50 at 24 h does the source give for `O=C1NC(=O)C(c2ccccc2)(c2ccccc2)N1` [Diphenylhydantoin Na, reference compound] here?
**A.** 540 mg/kg

— patent US4056540A, “4-Phenyl-1,3-benzodioxans” (Bristol-Myers Company, priority 1975, dated 1977)
